In PubChem BioAssay AID833 (The Scripps Research Institute Molecular Screening Center, 2007) one finds activation data, which are given here for 1 compound.

Protein sequences, listed by entry. Tags and fused reporters are not part of them.
UniProt O08726, whole entry: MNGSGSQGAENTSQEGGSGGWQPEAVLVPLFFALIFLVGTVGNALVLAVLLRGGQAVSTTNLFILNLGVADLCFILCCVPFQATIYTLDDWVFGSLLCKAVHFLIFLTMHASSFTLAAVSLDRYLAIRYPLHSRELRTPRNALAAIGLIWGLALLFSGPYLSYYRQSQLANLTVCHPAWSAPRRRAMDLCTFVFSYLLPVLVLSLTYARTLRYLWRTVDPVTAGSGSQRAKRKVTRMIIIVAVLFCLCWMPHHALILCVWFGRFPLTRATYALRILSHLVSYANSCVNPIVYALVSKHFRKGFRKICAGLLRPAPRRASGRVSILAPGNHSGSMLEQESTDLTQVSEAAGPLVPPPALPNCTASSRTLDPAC

The entries are a selection whose mix differs from that of the whole data set. Calls of active or inactive are those of the source. No stated cut-off is given here; in the data, active means activation above about 15%; inactive means the rest.

The assay deals with Galanin receptor type 2 (Rattus norvegicus) (UniProt O08726). The assay is described as follows: activates the rat galanin receptor 2 (AID 833). The following applies: cell-based GALR2 agonist screen; at 10 µM; hits give high values.
For `O=[N+]([O-])C1([N+](=O)[O-])COCOC1`, the activation is inactive: -8.45%.
